From patent publication US20230056360A1, “BLOOD-BRAIN-BARRIER SYSTEMS” (priority 2020, published 2023)

Tested on: iBMECs
Method: In order to obtain region-specific primary neural cultures, E18 rat embryos were extracted from a pregnant female. Embryos were dissected and several regions of the CNS were separated including cortex, striatum, hippocampus, cerebellum and spinal cord. The regions were enzymatically dissociated into single cells before seeded pre-coated MEA plates and petri dishes, in which they were cultured in Neurobasal medium (Sigma) for two weeks. In order to validate the various primary cell cultures, the cells were stained for the neuronal marker βIII-tubulin and the glial marker GFAP (FIG. 2).
iPSCs were differentiated into iBMECs as previously described. On Day 8 of differentiation, cells were enzymatically dissociated into single cell suspensions and seeded on precoated transwell inserts. 24 hours post seeding, iBMEC inserts were placed on top of primary neural cultures derived from the different CNS regions (FIG. 3) where they were cultured for three additional days.
Fluorescence was measured using a plate reader and calculated into concentrations using a calibration curve with known concentrations. Next, the inventors plotted the chart and extracted the slope for each transwell. Slopes from empty transwells were subtracted from the obtained value and the results were used to calculate the permeability, expressed as 10-5 cm/min.

Substance: Rhodamine 1,2,3
- differences in permeability between iBMEC monoculture and NVUs of different brain regions: These results were similar to the permeability of the small tracer Rhodamine
